Compound activity: PubChem, National Center for Advancing Translational Sciences (NCATS)
Many of the other results were omitted from the sample, so hits are more common in it than they were.
Rango complex inh – inhibitors of Rango-importin beta complex formation | Q14974 | Rango CFP/YFP FRET sensor + importin beta, 45 min | Potency, µM (doses to about 92.2 µM) | hit rate 0.031% among 340,000; note: nearly all actives have a fitted effect of over 15% in size
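Inhibition scored from the CFP 486 nm/YFP 530 nm FRET ratio 45 min after adding 0.125 microM importin beta to 50 nM Rango biosensor preincubated 5 min with compound (room temperature, PBS with DTT, Tween-20, BSA). No-importin wells as positive control.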
MBNL1 CUG block – blocks human MBNL1 binding to CUG repeat RNA; TR-FRET MBNL1-His/biotin-(CUG)12 binding, 665/545 ratio; hit rate 0.036% among 280,000; Potency, µM (top dose mostly 57.5 µM), hits mostly inhibitors; AID 2675; active = well fitted inhibition curve with a large enough effect in the signal ratio, with a control signal flat, not every such curve was filed as active; inconclusive = small, poorly fitted or top-dose-only effect, or effect the other way, or a change in a side signal; inactive = no such curve, though single readings can be large or run the other way; the % refers to the signal ratio
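Ratiometric TR-FRET (665 over 545 nm, excitation 340 nm) tracks disruption of MBNL1-His/biotin-(CUG)12 complex after 60 min at room temperature, with compounds at 92 nM to 58 uM final.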
CBFb RUNX1 block – blocks binding between human CBF-beta and RUNX1. Potency, µM (top dose mostly 59.8 µM), actives largely listed as inhibitors. AlphaScreen CBFb-His/RUNX1-biotin binding, biochemical. AID 1477. 230,000 tested, under 10 active; active = well fitted curve in the direction sought with a large enough effect; inconclusive = small, poorly fitted or top-dose-only effect, or effect the other way, or another doubt; inactive = no such curve, though single readings can be large or run the other way
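Read-out: AlphaScreen. Format: His-CBF-beta with biotinylated RUNX1 (30 nM each) preincubated 20 min, compound 15 min, Ni-chelate plus streptavidin beads 90 min; room temperature throughout.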
Rango release inh – inhibitors of RanGTP-induced Rango-importin beta complex dissociation; O95149+P62826; Biochemical FRET Rango-importin beta, RanGTP-induced dissociation; Potency, µM (top dose mostly 46.1 µM); hit rate 0.071% among 340,000; note: nearly all actives have a fitted effect of over 45% in size
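Rango/importin beta premix (0.1/0.25 uM final), PBS + 1 mM DTT + 0.02% Tween-20 + 0.1% BSA; cpd 5 min RT; FRET pre-read; + RanGTP-RCC1 (0.6 uM Ran, 2 mM GTP, 0.2 uM RCC1); 45 min RT; FRET post-read, ex 430, em 486/530 nm.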
ClpP mod – qHTS Assay for Activators of ClpP | hit rate 1.9% among 340,000 | Potency, µM (doses to about 57.5 µM) | ATP-dependent Clp protease proteolytic subunit (Bacillus subtilis (strain 168)), P80244 | purified B. subtilis ClpP, FRET peptide cleavage, 20 min; active = well fitted falling curve with a large enough effect; inconclusive = small, poorly fitted or top-dose-only effect; inactive = no such curve, though single readings can be large or run the other way; note: the source files actives as falling curves though it sought activators and does not explain the sign; nearly all actives have a fitted effect of over 65% in size
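Purified B. subtilis ClpP, 10 microg/mL final in Tris/HCl pH8 with KCl, BSA, glycerol and Tween-20, cleaved an Abz/nitrotyrosine-quenched decapeptide. Fluorescence (ex 320, em 430) was read at 0 and 20 min at room temperature. Delta was normalized to 5.8 microM ADEP and DMSO/no-enzyme controls.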
Hits are given with their value; n = inactive; u = inconclusive; x = not tested or not shown. Unless noted, calls come from the whole dose curve.

Protein sequences, listed by entry. Tags and fused reporters are not part of them.
ATP-dependent Clp protease proteolytic subunit (Bacillus subtilis (strain 168)), P80244, UniProt P80244, whole entry, looked up: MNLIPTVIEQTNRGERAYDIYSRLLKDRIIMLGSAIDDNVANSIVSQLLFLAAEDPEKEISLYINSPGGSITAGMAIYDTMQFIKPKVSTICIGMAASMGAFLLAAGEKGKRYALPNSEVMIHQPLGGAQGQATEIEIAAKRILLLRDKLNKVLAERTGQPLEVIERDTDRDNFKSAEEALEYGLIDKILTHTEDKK

SMILES | Rango complex inh | MBNL1 CUG block | CBFb RUNX1 block | Rango release inh | ClpP mod
COC(=O)C1=CN(C)C=C(C(=O)OC)C1c1ccsc1 | u | n | n | u | 7.94µM
COC(=O)C1=CN(Cc2cccs2)C=C(C(=O)OC)C1c1cccc(O)c1 | u | u | n | u | x
Cc1c(Br)c([N+](=O)[O-])nn1CC(=O)NCc1ccco1 | n | u | n | n | 35.5µM
CC1CCCCN1CCCNC(=O)c1ccc2c(c1)sc1nc(-c3ccc(F)cc3)cn12 (stereo unspecified) | x | x | x | x | n
CC(=O)N1CC(=O)N=C1SCC(=O)Nc1nc(C)c(-c2ccccc2)s1 | n | n | n | n | 20µM
CCOc1ccc(-c2csc(NC(=O)CSC3=NC(=O)CN3C(C)=O)n2)c2ccccc12 | n | n | n | n | n
CC(C)(C)c1ccc(-c2nnc(-c3ccccc3NC(=O)c3cccc(C(F)(F)F)c3)o2)cc1 | x | x | x | x | n
CCc1ccc(N(CC)C(=O)Cn2nc(Cc3cccnc3)c3ccccc3c2=O)cc1 | x | x | x | x | n
CCOC(=O)c1ccc(-c2ccc(/C=N/NC(=O)CN(c3ccccc3Br)S(C)(=O)=O)o2)cc1 | n | n | n | n | 17.8µM
CC1=C(C(=O)OC(C)C)C(c2coc3ccccc3c2=O)C2=C(CCCC2=O)N1 (stereo unspecified) | u | n | n | n | 3.55µM
O=C(NC1CCCC1)c1ccccc1-c1ccccc1 | n | n | n | n | 31.6µM
COc1cc(NC(=O)Nc2nc(C(N)Cc3ccc(C(F)(F)F)cc3)cs2)cc(OC)c1OC (stereo unspecified) | x | x | x | x | n
CC(=O)Oc1c(C)c(=O)n(C)c2ccccc12 | n | n | n | n | n
COc1c(OC(C)=O)c(=O)n2c3ccccc3c3ccnc1c32 | 20.6µM | x | x | n | n
Cc1cn2c(=O)cc(COC(=O)c3cccc(NC(=O)c4ccccc4C)c3)nc2s1 | x | x | x | x | n
COc1ccc(Br)cc1CNC(=O)c1ccc2nc(C(C)C)oc2c1 | x | x | x | x | n
COc1ccc(OC)c(CNC(=O)c2ccc3nc(C(C)C)oc3c2)c1 | x | x | x | x | 31.6µM
CN(C)C=NC(=O)c1ccc(N2CCN(c3ncc(C(F)(F)F)cc3Cl)CC2)cc1 | n | n | n | n | 25.1µM
CCCCCCc1cc2cc(S(=O)(=O)c3ccc(F)cc3)c(=O)oc2cc1O | u | n | n | u | 28.2µM
Cn1c(C(=O)NCC2CCCO2)cc2c(=O)n(C)c3ccccc3c21 (stereo unspecified) | n | n | n | n | n
Cn1c(C(=O)NCC2CCCO2)cc2c(=O)[nH]c3ccccc3c21 (stereo unspecified) | n | n | n | n | 22.4µM
CCCCCCCCCCCCCCCC[n+]1ccc(C)c2ccccc21 | x | x | x | x | n
COCc1cc(C)nc(NCCc2ccccc2)c1C#N | n | n | n | n | 3.55µM
CCOc1ccc2nc(C)cc(Nc3ccccc3OCC)c2c1 | x | x | x | x | n
O=S(=O)(c1cccc(F)c1)N1CCN(c2ncnc3scc(-c4ccc(F)cc4)c23)CC1 | n | x | x | n | 25.1µM
SMILES | Rango complex inh | MBNL1 CUG block | CBFb RUNX1 block | Rango release inh | ClpP mod
O=C(CN1c2ccccc2Sc2ccccc21)NNC(=S)Nc1ccc(Cl)cc1 | n | n | n | n | 25.1µM
CCOC(=O)C1CCN(C(c2ccc(C)cc2)c2sc3nc(-c4ccco4)nn3c2O)CC1 (stereo unspecified) | x | x | x | x | n
CC(OC(=O)c1ccccc1OCCOc1ccccc1)C(=O)Nc1ccc(Br)cc1 (stereo unspecified) | x | x | x | x | n
Nc1[nH]c(=O)[nH]c(=O)c1N=Cc1ccccc1 | n | x | x | u | 28.2µM
Cc1ccc2ncnc(-c3ccccc3)c2c1 | n | n | x | n | n
c1ccc(-c2ncnc3cc4n(c23)CCC4)cc1 | n | n | n | n | 28.2µM
CN(C)c1ccc(-c2nc(-c3cccs3)c(-c3cccs3)[nH]2)cc1 | x | x | x | x | 11.2µM
CN(C)C(=O)CSc1nc(-c2cccs2)c(-c2cccs2)[nH]1 | n | n | x | n | x
Oc1ccccc1-c1nc(-c2cccs2)c(-c2cccs2)[nH]1 | x | x | x | x | 14.1µM
CCCCOc1ccc(CNC(=O)Cc2ccc(NC(=O)N3CCCCc4ccccc43)cc2)cc1 | x | x | x | x | n
